The structures appear in SMILES notation. The entries are a selection whose mix differs from that of the whole data set. Calls of active or inactive are those of the source.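 How the source made its calls: active means percent inhibition above its own plate's cutoff, namely the mean of that plate's compound wells plus 3 SD; inactive means the rest.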

Protein sequences, listed by entry. Tags and fused reporters are not part of them.
UniProt P11229, whole entry: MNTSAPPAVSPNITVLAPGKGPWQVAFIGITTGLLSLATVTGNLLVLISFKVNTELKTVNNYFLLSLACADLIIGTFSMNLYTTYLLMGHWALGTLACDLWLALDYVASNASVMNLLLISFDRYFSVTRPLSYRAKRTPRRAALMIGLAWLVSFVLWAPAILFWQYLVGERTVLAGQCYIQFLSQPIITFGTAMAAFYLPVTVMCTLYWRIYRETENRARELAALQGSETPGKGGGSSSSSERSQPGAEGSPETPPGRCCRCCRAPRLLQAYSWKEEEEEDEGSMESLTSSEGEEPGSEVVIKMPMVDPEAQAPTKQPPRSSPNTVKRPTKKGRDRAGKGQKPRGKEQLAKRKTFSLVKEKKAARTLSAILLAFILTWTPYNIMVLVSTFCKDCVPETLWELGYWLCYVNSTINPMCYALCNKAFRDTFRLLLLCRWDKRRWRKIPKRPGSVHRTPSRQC

The term inhibition denotes the percentage by which the read-out fell short of the control.

For the assay, the target named is Muscarinic acetylcholine receptor M1 (Homo sapiens) (UniProt P11229). Briefly: CHRM1 blockers of acetylcholine calcium response – CHO-K1 cells, Fluo-8 calcium fluorescence, 1536-well, primary screen (AID 588852).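 Further: peak over basal fluorescence ratio during 140 s after agonist addition; 0% = ACh EC80 plus DMSO and 100% = DMSO alone without agonist.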 The following applies: CHO-K1 hM1, Fluo-8 calcium fluorescence, ACh EC80 antagonist; at 3 µM; active compounds read high.
Consider `O=P(Nc1nc2ccccc2s1)(c1ccccc1)c1ccccc1`, for which the inhibition was inactive: 19.3%.

Values taken from PubChem BioAssay AID588852 (The Scripps Research Institute Molecular Screening Center, 2011).
